Laboratory results taken from US9777020B2, “Furo-3-carboxamide derivatives and methods of use” (AbbVie Inc., priority 2014, dated 2017).

By UniProt entry, the sequences of proteins in these tests, tags left out. Residues count along the entry.
UniProt P04629, 33-796: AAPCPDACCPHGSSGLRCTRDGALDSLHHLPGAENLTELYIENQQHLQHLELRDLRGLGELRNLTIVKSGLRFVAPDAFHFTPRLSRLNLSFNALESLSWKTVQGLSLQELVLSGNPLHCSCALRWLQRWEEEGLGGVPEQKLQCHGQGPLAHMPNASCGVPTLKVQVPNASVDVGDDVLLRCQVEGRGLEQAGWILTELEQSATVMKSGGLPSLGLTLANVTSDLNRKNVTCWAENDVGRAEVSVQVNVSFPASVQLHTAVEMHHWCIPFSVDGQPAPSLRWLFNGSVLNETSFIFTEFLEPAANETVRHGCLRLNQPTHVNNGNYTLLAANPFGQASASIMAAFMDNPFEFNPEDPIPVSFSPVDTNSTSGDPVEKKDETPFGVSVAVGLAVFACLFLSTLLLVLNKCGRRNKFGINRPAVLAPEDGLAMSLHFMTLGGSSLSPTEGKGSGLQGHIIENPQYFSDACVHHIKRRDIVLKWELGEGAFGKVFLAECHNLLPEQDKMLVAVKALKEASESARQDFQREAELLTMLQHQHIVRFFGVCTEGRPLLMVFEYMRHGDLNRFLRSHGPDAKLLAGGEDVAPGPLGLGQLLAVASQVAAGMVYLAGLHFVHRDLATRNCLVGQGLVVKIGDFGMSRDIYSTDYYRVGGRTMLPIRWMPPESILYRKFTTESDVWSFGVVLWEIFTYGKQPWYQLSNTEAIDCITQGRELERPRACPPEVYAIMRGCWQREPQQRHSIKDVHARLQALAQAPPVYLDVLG

Biological target: TrkA (Homo sapiens (Human), UniProt P04629)
Experiment: TrkA kinase HTRF enzyme inhibition assay
Format: biochemical
Details: TrkA pre-incubated with 200 μM ATP
Protocol: TrkA enzyme was obtained from Invitrogen (as catalog numbers PV3144, PV3616, and PV3617, respectively). Enzyme activity was measured in an HTRF® (homogeneous time resolved fluorescence) assay, which detects enzymatic phosphorylation of a biotinylated synthetic peptide substrate (an LCK peptide analog, biotin-ahx-GAEEEIYAAFFA, from Genemed Synthesis). Phosphorylation is assessed by HTRF® in the presence of an anti-phosphotyrosine antibody conjugated to Eu^3+ cryptate (Cisbio) as donor fluorophore, and streptavidin conjugated to allophycocyanin (ProZyme) as acceptor fluorophore. The HTRF® signal was detected at two different wavelengths (620 nm and 665 nm) which were used to calculate the fluorescence ratio.
TrkA enzyme was titrated to a concentration optimized to ensure accurate measurement of the initial reaction rate. To allow the TrkA enzyme to undergo activation and auto-phosphorylation, a 20 minute pre-incubation with ATP was carried out (at twice the final targeted enzyme and ATP concentration) prior to addition of test compound and the peptide substrate.
TrkA in vitro assays were performed by pre-incubating TrkA (2-10 nM) with ATP (200 μM) for 20 minutes at ambient temperature in 50 mM HEPES pH 7.4, 10 mM MgCl2, 2 mM MnCl2, 100 μM Na3VO4, 1 mM dithiothreitol, 0.01% BSA (bovine serum albumin). Then, to the activated Trk enzyme mixture was added the test compound in 2% dimethyl sulfoxide. After 10 minutes, the peptide substrate (125 nM) was added. After 1 hour, enzyme reactions were terminated by addition of equal reaction volumes of detection/stop reagent (containing 0.2 μg/mL anti-phosphotyrosine monoclonal antibody labeled with europium from Cisbio (catalog#PT66-K), and 4 μg/mL PhycoLink® Streptavidin-Allophycocyanin conjugate from ProZyme (catalog#PJ25S) in 60 mM EDTA in 40 mM HEPES pH 7.4, 480 mM KF, 0.01% Tween® 20 and 0.1% BSA bovine serum albumin) Reaction plates were stored at 4° C. overnight before reading the fluorescence ratio signal on a PerkinElmer EnVision™ fluorescence detector. Individual reaction wells were stopped at time points to obtain reaction rates. The test inhibitor compounds were assayed in duplicate, at half-log serial dilutions over a range of concentrations (e.g. starting at 50 μM or 5 μM as the high compound concentration). The percent Trk enzyme inhibition was calculated from the initial rates of the inhibited reactions relative to the uninhibited control. IC50 values were calculated by fitting the inhibition percent to the concentration of inhibitor [I] in the assay in equation 1 below, to solve for the IC50. Inhibition %=100[I]/([I]+[IC50]) equation 1

IC50 | Compound
60.2 nM | CN1CCc2occ(C(=O)Nc3ccc4nn(C)cc4c3)c2C1=O [Example 2, 5-methyl-N-(2-methyl-2H-indazol-5-yl)-4-oxo-4,5,6,7-tetrahydrofuro[3,2-c]pyridine-3-carboxamide]
46.7 nM | COc1cc(N2CCNCC2)ccc1NC(=O)c1coc2c1C(=O)NCC2 [Example 6, N-[2-methoxy-4-(piperazin-1-yl)phenyl]-4-oxo-4,5,6,7-tetrahydrofuro[3,2-c]pyridine-3-carboxamide]
5.1 nM | CCOc1nc(N2CCN(C(C)=O)CC2)ccc1NC(=O)c1coc2c1C(=O)N(CCO)CC2 [Example 9, N-[6-(4-acetylpiperazin-1-yl)-2-ethoxypyridin-3-yl]-5-(2-hydroxyethyl)-4-oxo-4,5,6,7-tetrahydrofuro[3,2-c]pyridine-3-carboxamide]
5.9 nM | Cn1cc2cc(NC(=O)c3coc4c3C(=O)C(C)(C)CC4)ccc2n1 [Example 168, 5,5-dimethyl-N-(2-methyl-2H-indazol-5-yl)-4-oxo-4,5,6,7-tetrahydro-1-benzofuran-3-carboxamide]
